Amino acid sequences for entries named in this document (tags omitted). Residues count along the entry.
UniProt P03952, 391-638 limits assumed: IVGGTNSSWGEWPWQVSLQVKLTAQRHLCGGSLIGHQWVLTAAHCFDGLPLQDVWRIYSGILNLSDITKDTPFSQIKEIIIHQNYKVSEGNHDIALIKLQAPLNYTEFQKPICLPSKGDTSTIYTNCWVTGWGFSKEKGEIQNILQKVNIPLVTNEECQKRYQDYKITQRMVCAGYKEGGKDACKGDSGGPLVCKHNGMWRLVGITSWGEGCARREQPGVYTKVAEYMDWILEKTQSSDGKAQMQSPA
UniProt P03952, 20-390 partner limits assumed: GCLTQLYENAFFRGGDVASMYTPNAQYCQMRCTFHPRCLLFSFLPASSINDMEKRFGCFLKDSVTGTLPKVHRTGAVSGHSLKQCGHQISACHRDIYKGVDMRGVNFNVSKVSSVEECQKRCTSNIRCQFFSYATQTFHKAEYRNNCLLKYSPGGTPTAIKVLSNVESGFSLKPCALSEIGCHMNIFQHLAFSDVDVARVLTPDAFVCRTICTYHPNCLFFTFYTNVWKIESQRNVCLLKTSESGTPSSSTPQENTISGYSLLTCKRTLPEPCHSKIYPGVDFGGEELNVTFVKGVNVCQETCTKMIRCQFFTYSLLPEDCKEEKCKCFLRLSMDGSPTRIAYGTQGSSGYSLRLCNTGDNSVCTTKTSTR

In article PMC11017388 (ACS Medicinal Chemistry Letters, 2024):

Tests used:
PKa [1] = target: T1, PKa (Homo sapiens, UniProt P03952); settings: read-out: PKa IC50; reversible PKa inhibitor; cited from earlier work
PKa [2] = target: T1, PKa; experiment: Compound dissociation assay (jump dilution); settings: 62.5-fold dilution after 10 min preincubation; monitored over 600 s with fluorogenic substrate

N=C(N)N1CCC(NC(=O)[C@@H](CC(=O)[C@@H](CC2CCCCC2)NCC(=O)O)Cc2ccccc2)CC1 (single isomer, unassigned)
IC50 (PKa [1]): 4 to 6 nM
Inhibitor dissociation from PKa (PKa [2]): slow dissociation
